Consider one compound from US7846944B2, “Pyrazolo-pyridinone compounds and methods of use thereof” (Amgen Inc., priority 2007, dated 2010).

By UniProt entry, the sequences of proteins in these tests, tags left out.
UniProt Q16539, whole entry: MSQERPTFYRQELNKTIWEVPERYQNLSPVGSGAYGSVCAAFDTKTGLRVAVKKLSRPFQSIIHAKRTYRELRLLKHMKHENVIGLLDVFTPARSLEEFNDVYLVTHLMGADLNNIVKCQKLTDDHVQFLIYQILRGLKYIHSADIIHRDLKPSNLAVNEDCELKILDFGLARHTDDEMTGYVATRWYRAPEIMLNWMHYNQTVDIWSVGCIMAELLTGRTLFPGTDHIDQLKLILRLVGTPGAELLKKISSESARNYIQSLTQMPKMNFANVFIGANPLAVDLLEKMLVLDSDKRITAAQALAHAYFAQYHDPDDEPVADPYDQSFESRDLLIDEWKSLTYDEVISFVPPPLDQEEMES

Like-named read-outs stand apart in the source and are kept apart here. Where only a bound is given, the exact number is not on record here.

The subject of experiment [1] is Collagen-Induced Arthritis (CIA) Model in Rats. Kind of experiment: Collagen-induced arthritis (CIA) model in rats. To be noted: Rattus norvegicus, 168 h, read-out: ED50 in the rat CIA model. It counts as in vivo. The procedure: Collagen-Induced Arthritis (CIA) Model in Rats
Porcine type II collagen (10 mg) was dissolved in 0.1N acetic acid (5 mL) two days prior to use on a rotating plate in the refrigerator. Subsequently, collagen was emulsified 1:1 with Freund's incomplete adjuvant using an emulsification needle and glass syringes yielding a final concentration of 1 mg/mL.
Disease was induced in each animal by intradermal injection of emulsified collagen in IFA at 10 different sites (100 μL per site) over the back. […] At onset (defined as Day 0), rats were randomized to treatment groups and therapy was initiated with drug or vehicle control as noted in table above. Rats were treated for 7 days and were sacrificed on Day 8.

The target of experiment [2] is recombinant human p38α (Homo sapiens, UniProt Q16539). Kind of experiment: Purified and activated recombinant human p38α HTRF kinase assay. It counts as biochemical. Here is the method: Purified and Activated Recombinant Human p38α Assay
• Kinase Reaction Buffer: Kinase reaction buffer for p38α HTRF assays consists of 50 mM Tris-pH 7.5, 5 mM MgCl2, 0.1 mg/mL BSA, 100 μM Na3VO4 and 0.5 mM DTT. • HTRF Detection Buffer: HTRF detection buffer contains 100 mM HEPES-pH 7.5, 100 mM NaCl, 0.1% BSA, 0.05% Tween-20, and 10 mM EDTA. • Serial Dilution of Compounds: Compounds were dissolved in 100% DMSO and serially diluted (3 fold, 10 point) in a polypropylene 96-well microtiter plate (drug plate). The final starting concentration of compounds in the p38α enzymatic assays was 1 μM. […] In the absence of substrate, the background was measured as LO control. […] After 60 minutes incubation at room temperature, the assay plate was read in a Discovery Plate Reader. The wells were excited with coherent 320 nm light and the ratio of delayed ([…] post excitation) emissions at […] (native europium fluorescence) and 665 nm (europium fluorescence transferred to allophycocyanin—an index of substrate phosphorylation) was determined (Park et al, 1999). • Data Analysis: The proportion of substrate phosphorylated in the kinase reaction in the presence of compound compared with that phosphorylated in the presence of DMSO vehicle alone (HI control) was calculated using the formula: % control (POC)=(compound−average LO)/(average HI−average LO)*100. […]
(Time-resolved FRET reads energy transfer from a long-lived donor to a nearby acceptor.)

The test system of experiment [3] is TNF-α secretion by LPS-treated THP1 cells. Kind of experiment: Lipopolysaccharide-activated THP1 cell TNF production assay. It counts as cell-based. To be noted: Homo sapiens, THP-1, 3 h, read-out: IC50 in the THP-1 cellular TNF production assay. Here is the method: Lipopolysaccharide-Activated THP1 Cell TNF Production Assay
THP1 cells were resuspended in fresh THP1 media (RPMI 1640, 10% heat-inactivated FBS, 1×PGS, 1×NEAA, plus 30 μM βME) at a concentration of 1.5×10^6 cells per mL. One hundred microliters of cells per well were plated in a polystyrene 96-well tissue culture plate. 1.5 micrograms per mL of bacterial LPS was prepared in THP1 media and transferred to the first 11 columns of a 96-well polypropylene plate. Column 12 contained only THP1 media for the LO control. Compounds were dissolved in 100% DMSO and serially diluted 3 fold in a polypropylene 96-well microtiter plate (drug plate). Columns 6 and 12 were reserved as controls (HI controls and LO controls respectively) and contained only DMSO. […] Fifty microliters of conditioned media was transferred to a 96-well MULTI-ARRAY™ 96-well small spot plate—custom coated with MAB610 containing 100 μL of 2× Read Buffer P supplemented with 0.34 nM AF210NA polyclonal Ab labeled with ruthenium (MSD-Sulfo-TAG™-NHS ester). After an overnight incubation at room temperature with shaking, the reaction was read on the Sector Imager™ 6000. […] The amount of secreted TNF-α in the presence of AMG compounds compared with that in the presence of DMSO vehicle alone (HI control) was calculated using the formula: % control (POC)=(cpd−average LO)/(average HI−averageLO)*100. […]

Experiment [4] concerns production of IL-1β, IL-6, and TNF-α by PBMC activated with LPS. Kind of experiment: Lipopolysaccharide-activated PBMC cytokine production assay. Particulars: 18 h, read-out: IC50 in the whole blood PMBC assay. The format is cell-based. Here is the method:
Lipopolysaccharide-Activated PBMC Cytokine Production Assay
Test compounds were evaluated in vitro for the ability to inhibit the production of IL-1β, IL-6, and TNF-α by PBMC activated with bacterial lipopolysaccharide (LPS). Fresh leukocytes were obtained from a local blood bank, and peripheral blood mononuclear cells (PBMCs) were isolated by density gradient centrifugation on Ficol-Paque Plus (Pharmacia).
Preparation of Test Compound Stock Solutions
All reagents were prepared in RPMI 1640+10% v/v human AB serum+1×Pens/Strep/Glu (assay medium). Test compounds were dissolved in 100% DMSO and serially diluted in 96-well polypropylene round bottom micro titer plates (drug plate). Serial dilutions were then diluted 1:250 into assay medium to a 4× working concentration. […]
LPS was prepared to a 4× concentration in assay medium. […] After 18 hours culture supernatants were removed and IL-1β, IL-6, and TNF-α presence in the supernatants was quantified using MSD ECL based technology.
Cytokine Measurements 20 μL of culture supernatant were added to MSD plates, and incubated for one hour at room temperature. 20 μL of detection antibody diluted in antibody diluent (1 μg/mL), and 110 μL of 2× Read Buffer P was added, and incubated for one hour at RT. Electrochemiluminescence was measured using the SECTOR HTS Imager (MSD, Gaithersburg, Md.). […]

As a reminder, the ED50 is the dose that gives a 50% effect, or the effect in half of the subjects. One may read the IC50 as the concentration that inhibits the measured activity by half. As to `Cn1c(=O)c(-c2cc(C(=O)NC3CC3)ccc2Cl)cc2cnn(-c3c(F)cccc3F)c21` [Example 20, 4-chloro-N-cyclopropyl-3-(1-(2,6-difluorophenyl)-7-methyl-6-oxo-6,7-dihydro-1H-pyrazolo[3,4-b]pyridin-5-yl)benzamide], the ED50 in experiment [1] came out at 0.1 mg/kg. Further, the IC50 in experiment [2] was no more than 100 nM; in experiment [2] (read-out: p38a IC50) it was 2.5 nM; in experiment [3], no more than 175 nM; in experiment [4], no more than 125 nM.
